Columns and labels:
[1] = target: Acetylcholinesterase (Homo sapiens) (UniProt P22303); experiment: Pseudo first order observed rate constants for reactivation of acetylcholinesterase at 6M*10e4 HOX and 1.71 M*10e4OX; Kobs (min-1 X 10e3)
[2] = target: Acetylcholinesterase (Homo sapiens) (UniProt P22303); experiment: Ratio of [EOP'']infinity to that of [EOH]infinity for reactivation of acetylcholinesterase at concentration of 2M*10e4 [HOX] and 17.6Me-1*10e-3 [OX]e-1; Expressed as [EOP'']infinity/[EOH]infinity
[3] = target: Acetylcholinesterase (Homo sapiens) (UniProt P22303); experiment: Percent reactivation of acetylcholinesterase after 4 hr incubation
[4] = target: Acetylcholinesterase (Homo sapiens) (UniProt P22303); experiment: keff for reactivation of acetylcholinesterase at concentration of 2M*10e4 [HOX] and 17.6Me-1*10e-3 [OX]e-1 was determined; Expressed as keff, 1/M 1/min
[5] = target: Acetylcholinesterase (Homo sapiens) (UniProt P22303); experiment: Maximum attainable percent reactivation obtained for a range of concentrations of 10M*10e4 HOX and 2.85M*10e4OX
[6] = target: Acetylcholinesterase (Homo sapiens) (UniProt P22303); experiment: 1/kmax for reactivation of acetylcholinesterase at concentration of 2M*10e4 [HOX] and 17.6Me-1*10e-3 [OX]e-1 was determined; Expressed as 1/kmax, min
[7] = target: Acetylcholinesterase (Homo sapiens) (UniProt P22303); experiment: Ratio of [EOP'']infinity to that of [EOH]infinity for reactivation of acetylcholinesterase at concentration of 6M*10e4 [HOX] and 5.86Me-1*10e-3 [OX]e-1; Expressed as [EOP'']infinity/[EOH]infinity
[8] = target: Acetylcholinesterase (Homo sapiens) (UniProt P22303); experiment: kr for reactivation of acetylcholinesterase at concentration of 2M*10e4 [HOX] and 17.6Me-1*10e-3 [OX]e-1 was determined; Expressed as kr, M*10e3
[9] = target: Acetylcholinesterase (Homo sapiens) (UniProt P22303); experiment: Kinetic constant was determined for reactivation of acetylcholinesterase at concentration of 6M*10e4 [HOX] and 5.86Me-1*10e-3 [OX]e-1; (kobsd-ka)e-1, min
[10] = target: Acetylcholinesterase (Homo sapiens) (UniProt P22303); experiment: Kr for reactivation of acetylcholinesterase at concentration of 2M*10e4 [HOX] and 17.6Me-1*10e-3 [OX]e-1 was determined; Expressed as kr, M*10e4
[11] = target: Acetylcholinesterase (Homo sapiens) (UniProt P22303); experiment: Pseudo first order observed rate constants for reactivation of acetylcholinesterase at 2M*10e4 HOX and 1M*10e4OX; Kobs (min-1 X 10e3)
[12] = target: Acetylcholinesterase (Homo sapiens) (UniProt P22303); experiment: Pseudo first order observed rate constants for reactivation of acetylcholinesterase at 10M*10e4 HOX and 2.85M*10e4OX; Kobs (min-1 X 10e3)
[13] = target: Acetylcholinesterase (Homo sapiens) (UniProt P22303); experiment: Ratio of ka to that of kr for reactivation of acetylcholinesterase at concentration of 2M*10e4 [HOX] and 17.6Me-1*10e-3 [OX]e-1 was determined
[14] = target: Acetylcholinesterase (Homo sapiens) (UniProt P22303); experiment: Percent reactivation of acetylcholinesterase after 2 hr incubation
[15] = target: Acetylcholinesterase (Homo sapiens) (UniProt P22303); experiment: Ratio of kaKr to that of kr for reactivation of acetylcholinesterase at concentration of 2M*10e4 [HOX] and 17.6Me-1*10e-3 [OX]e-1 was determined; Expressed as kaKr/kr; M*10e4
[16] = target: Acetylcholinesterase (Homo sapiens) (UniProt P22303); experiment: Ratio of [EOP'']infinity to that of [EOH]infinity for reactivation of acetylcholinesterase at concentration of 10M*10e4 [HOX] and 8.51Me-1*10e-3 [OX]e-1; Expressed as [EOP'']infinity/[EOH]infinity
[17] = target: Acetylcholinesterase (Homo sapiens) (UniProt P22303); experiment: ka for reactivation of acetylcholinesterase at concentration of 2M*10e4 [HOX] and 17.6Me-1*10e-3 [OX]e-1 was determined; Expressed as ka, 1/min 1*10e3
[18] = target: Acetylcholinesterase (Homo sapiens) (UniProt P22303); experiment: Maximum attainable percent reactivation obtained for a range of concentrations of 6M*10e4 HOX and 1.71 M*10e4OX
[19] = target: Acetylcholinesterase (Homo sapiens) (UniProt P22303); experiment: Kinetic constant was determined for reactivation of acetylcholinesterase at concentration of 2M*10e4 [HOX] and 17.6Me-1*10e-3 [OX]e-1; (kobsd-ka)e-1, min
[20] = target: Acetylcholinesterase (Homo sapiens) (UniProt P22303); experiment: Kinetic constant was determined for reactivation of acetylcholinesterase at concentration of 10M*10e4 [HOX] and 8.51Me-1*10e-3 [OX]e-1; (kobsd-ka)e-1, min
[21] = target: Acetylcholinesterase (Homo sapiens) (UniProt P22303); experiment: Ratio of Kr/kmax for reactivation of acetylcholinesterase at concentration of 2M*10e4 [HOX] and 17.6Me-1*10e-3 [OX]e-1 was determined; Expressed as Kr/kmax, M-min*10e2
[22] = target: Acetylcholinesterase (Homo sapiens) (UniProt P22303); experiment: keff (rel) for reactivation of acetylcholinesterase at concentration of 2M*10e4 [HOX] and 17.6Me-1*10e-3 [OX]e-1 was determined; Expressed as keff (rel)
[23] = target: Acetylcholinesterase (Homo sapiens) (UniProt P22303); experiment: kb for reactivation of acetylcholinesterase at concentration of 2M*10e4 [HOX] and 17.6Me-1*10e-3 [OX]e-1 was determined; Expressed as kb, 1/M 1/min
[24] = target: Acetylcholinesterase (Homo sapiens) (UniProt P22303); experiment: Percent reactivation of acetylcholinesterase after 24 hr incubation
[25] = target: Acetylcholinesterase (Homo sapiens) (UniProt P22303); experiment: Maximum attainable percent reactivation obtained for a range of concentrations of 2M*10e4 HOX and 0.569M*10e4OX
[26] = target: Acetylcholinesterase (Homo sapiens) (UniProt P22303); experiment: Percent reactivation of Acetylcholinesterase after 24 hr incubation
[27] = target: Acetylcholinesterase (Homo sapiens) (UniProt P22303); experiment: Percent reactivation of Acetylcholinesterase after 2 hr incubation
[28] = target: Acetylcholinesterase (Homo sapiens) (UniProt P22303); experiment: Percent reactivation of Acetylcholinesterase after 4 hr incubation

Amino acid sequences for entries named in this document (tags omitted). A change or cut given only in a name is not applied to a line headed by its entry.
UniProt P22303: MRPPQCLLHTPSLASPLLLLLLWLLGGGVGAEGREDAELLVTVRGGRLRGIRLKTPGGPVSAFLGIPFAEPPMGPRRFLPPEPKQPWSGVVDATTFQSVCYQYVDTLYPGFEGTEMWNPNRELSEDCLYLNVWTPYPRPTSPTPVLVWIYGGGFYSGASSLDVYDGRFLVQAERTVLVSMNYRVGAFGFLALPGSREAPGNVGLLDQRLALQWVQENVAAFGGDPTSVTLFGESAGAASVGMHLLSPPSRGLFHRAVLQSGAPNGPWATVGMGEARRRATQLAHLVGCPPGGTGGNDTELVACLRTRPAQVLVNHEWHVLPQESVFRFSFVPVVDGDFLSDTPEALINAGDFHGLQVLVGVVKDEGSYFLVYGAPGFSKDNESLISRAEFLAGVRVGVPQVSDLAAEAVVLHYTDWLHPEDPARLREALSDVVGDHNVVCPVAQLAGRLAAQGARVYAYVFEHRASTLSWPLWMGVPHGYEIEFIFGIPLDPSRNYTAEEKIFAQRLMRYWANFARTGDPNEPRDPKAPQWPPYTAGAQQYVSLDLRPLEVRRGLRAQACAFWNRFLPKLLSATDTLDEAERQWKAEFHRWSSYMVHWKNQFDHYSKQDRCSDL

## COc1ccc(C(=O)/C(=N/O)SCCN(C)C)cc1
[1]
  k obs: 136 s⁻¹
[2]
  [EOP']infinity/[EOH]infinity: 3.29
[3]
  Reactivation: 65%
[4]
  k eff: 1.8 M⁻¹ s⁻¹
[5]
  Reactivation: 4.15%
[6]
  1/kmax: 117 min
[7]
  [EOP']infinity/[EOH]infinity: 1.17
[8]
  kr: 10000 min⁻¹
[9]
  1/kobsd-ka: 151 min
[10]
  Kr: 2700 M
[11]
  k obs: 125 s⁻¹
[12]
  k obs: 172 s⁻¹
[13]
  ka/kr: -0.018
[14]
  Reactivation: 56%
[15]
  kaKr/kr: 19000 M
[16]
  [EOP']infinity/[EOH]infinity: 0.576
[17]
  ka: 190 min⁻¹
[18]
  Reactivation: 3.83%
[19]
  1/kobsd-ka: 170 min
[20]
  1/kobsd-ka: 115 min
[21]
  Kr/kmax: 32 M-min
[22]
  k eff (rel): 9.8
[23]
  kb: 6.33 M⁻¹ s⁻¹
[24]
  Reactivation: 71%
[25]
  Reactivation: 3.15%

## CCN(CC)CCS/C(=N\O)C(=O)c1ccc([N+](=O)[O-])cc1
[26]
  Reactivation: 25%
[27]
  Reactivation: 18%
[28]
  Reactivation: 20%

Source: ChEMBL document CHEMBL1121722, “Nonquaternary cholinesterase reactivators. Dialkylaminoalkyl thioesters of alpha-ketothiohydroximic acids as reactivators of diisopropyl phosphorofluoridate inhibited acetylcholinesterase” (1981)
